This is a selection; strong and weak results do not stand in their true shares. Some structures show a salt or complex split into parts, the way the source records it. The source made the active and inactive calls.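 The calls were made as follows: active = inhibition of the luminescence signal of 40% or more relative to plate controls, in a single-dose primary screen at 18.75 µM; inactive = the rest.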
Experiment: blockers of HIF-2a driven luciferase – luminescence, 786-0 RCC cells, primary screen (AID 624352)
Conditions: 786-0 RCC cells HIF-2a reporter, overnight, at 18.8 µM, active compounds read high

| Compound | inhibition |
| --- | --- |
| COc1ccc(OP(C)(=O)Nc2ccccn2)cc1 (centres undefined) | inactive: -3.5% |
| CN(C)CCOC(=O)C(O)(c1ccccc1)C1CCCC1 (centres undefined) | inactive: 3.13% |
| COc1ccccc1OP(C)(=O)Nc1ccc(Br)cc1 (centres undefined) | inactive: -12.8% |
| CP(=O)(Nc1ccccn1)Oc1ccccc1 (centres undefined) | inactive: 10.5% |
| COc1ccccc1OP(C)(=O)Nc1ccc(C)cc1C (centres undefined) | inactive: 10.1% |
| CCc1ccc(OP(C)(=O)O)cc1 | inactive: 11.1% |
| O=[N+]([O-])c1cc([N+](=O)[O-])c(Nc2ccccn2)c([N+](=O)[O-])c1 | inactive: -0.574% |
| Cc1c(NP(C)(=O)Oc2ccc(C(C)C)cc2)c(=O)n(-c2ccccc2)n1C (centres undefined) | inactive: 17.3% |
| COc1ccccc1OP(C)(=O)Nc1ccc(C)c(C)c1 (centres undefined) | inactive: 14.7% |
| COc1ccc(OP(C)(=O)Nc2ccccc2Br)cc1 (centres undefined) | inactive: 15.2% |
| O=C1C(O)=C([N+](=O)[O-])C(=O)C(O)=C1[N+](=O)[O-] | inactive: 5.26% |
| Cc1cc(C)cc(OP(C)(=O)Nc2cccc(C(F)(F)F)c2)c1 (centres undefined) | inactive: 6.79% |
| CP(=O)(OCCOc1ccccc1)OCCOc1ccccc1 | inactive: 17.4% |
| CCCCCCCCCCCCCCCC1C[N+](C)(C)CCOP(C)(=O)O1 (centres undefined) | active: 54.7% |
| CP(=O)(Nc1ccc(Cl)cc1Cl)Oc1ccccc1 (centres undefined) | inactive: -4.48% |
| CCOC(=O)c1ccc(NP(C)(=O)Oc2ccc(Cl)cc2)cc1 (centres undefined) | inactive: 22.6% |
| CP(=O)(OC12CC3CC(CC(C3)C1)C2)OC12CC3CC(CC(C3)C1)C2 | inactive: 13.5% |
| COc1ccccc1OP(C)(=O)Nc1c(C)n(C)n(-c2ccccc2)c1=O (centres undefined) | inactive: 0.357% |
| O=C(OCCCN1CCCC1)C(O)(c1ccccc1)C1CCCCC1 (centres undefined) | inactive: 4.08% |
| CP(=O)(Oc1ccccc1)N1CCOC1=O (centres undefined) | inactive: -1.11% |

| Compound | inhibition |
| --- | --- |
| CCc1ccc(OP(C)(=O)Nc2cccnc2)cc1 (centres undefined) | inactive: 6.22% |
| CCN(CC)CC(O)COC(=O)C(O)(c1ccccc1)C1CCCCC1 (centres undefined) | inactive: 4.26% |
| COc1ccc(OP(C)(=O)Nc2ccc(Br)cc2)cc1 (centres undefined) | inactive: -14% |
| CN(C)C(=O)c1c([N+](=O)[O-])cc([N+](=O)[O-])cc1[N+](=O)[O-] | inactive: -2.3% |
| CC(C)(C)c1ccc(OP(C)(=O)O)cc1 | inactive: 6.49% |
| COc1ccccc1OP(C)(=O)Nc1ccccc1Br (centres undefined) | inactive: 11.4% |
| CP(=O)(Nc1ccc(Cl)cc1)Oc1ccc(F)cc1 (centres undefined) | inactive: 0.87% |
| CCOP(C)(=S)SCC(=O)NC(C)(CC)C(=O)O (centres undefined) | inactive: 7.65% |
| CP(=O)(Nc1ccc(SC(F)(F)F)cc1)Oc1ccc(F)cc1 (centres undefined) | inactive: 16.6% |
| Cc1ccccc1NP(C)(=O)Nc1ccccc1C | inactive: 17.6% |
| O=[N+]([O-])c1cc([N+](=O)[O-])c(C(F)(F)F)c([N+](=O)[O-])c1O | inactive: -4.26% |
| CP(=O)(Nc1ccc2c(c1)OCCO2)Oc1ccccc1 (centres undefined) | inactive: 6.02% |
| CN(C)CCOC(=O)C(O)(c1ccccc1)C1CCCCC1 (centres undefined) | inactive: 3.14% |
| COc1ccc(NP(C)(=O)Oc2ccccc2OC)cc1 (centres undefined) | inactive: 10.7% |
| COc1ccc(OP(C)(=O)Nc2cccc(Br)c2)cc1 (centres undefined) | inactive: 13.8% |
| Cc1c(C(c2ccc3c(c2)OCO3)c2c(C)n(C)n(-c3ccccc3)c2=O)c(=O)n(-c2ccccc2)n1C.O=[N+]([O-])c1cc([N+](=O)[O-])c(O)c([N+](=O)[O-])c1 | inactive: 9.28% |
| O=[N+]([O-])c1ccc(OP2(=O)COCCO2)cc1 (centres undefined) | inactive: 6.26% |
| Cc1cc(-c2cccc3ccccc23)c(C)cn1.O=[N+]([O-])c1cc([N+](=O)[O-])c(O)c([N+](=O)[O-])c1 | inactive: -6.29% |
| O=[N+]([O-])c1cc([N+](=O)[O-])c(NCC2CCS(=O)(=O)C2)c([N+](=O)[O-])c1 (centres undefined) | inactive: 30.1% |
| CCOC(=O)c1ccc(NP(C)(=O)Oc2ccc(F)cc2)cc1 (centres undefined) | inactive: 10.4% |

| Compound | inhibition |
| --- | --- |
| COc1ccc(OP(C)(=O)Nc2ccc(SC(F)(F)F)cc2)cc1 (centres undefined) | inactive: 3.68% |
| CCN(CC)CCCNc1ccccc1[N+](=O)[O-].O=[N+]([O-])c1cc([N+](=O)[O-])c(O)c([N+](=O)[O-])c1 | inactive: 2.57% |
| CP(=O)(Nc1ccccc1)Oc1ccc(F)cc1 (centres undefined) | inactive: -5.45% |
| CCCCCOc1ccc(NP(C)(=O)Oc2ccc(Cl)cc2Cl)cc1 (centres undefined) | inactive: -22.1% |
| O=[N+]([O-])c1cc([N+](=O)[O-])c(OC2CCCCC2O)c([N+](=O)[O-])c1 (centres undefined) | inactive: 18.6% |
| Cc1c([N+](=O)[O-])cc([N+](=O)[O-])c(Br)c1[N+](=O)[O-] | inactive: 1.81% |
| CCN(CC)CCCOC(=O)C(O)(c1ccccc1)C1CCCCC1 (centres undefined) | inactive: 8.15% |
| CP(=O)(Nc1ccccc1F)Oc1ccccc1 (centres undefined) | inactive: 9.24% |
| CC(C)c1ccc(OP(C)(=O)Nc2ccc(SC(F)(F)F)cc2)cc1 (centres undefined) | inactive: 6.1% |
| O=[N+]([O-])c1cc([N+](=O)[O-])c(Nc2ccc(Cl)cc2)c([N+](=O)[O-])c1 | inactive: -26.6% |
| COc1ccc2c(c1O)-c1c(O)c(OC)cc3c1[C@H](C2)[N+](C)(C)CC3.O=[N+]([O-])c1cc([N+](=O)[O-])c([O-])c([N+](=O)[O-])c1[O-] | inactive: -0.942% |
| O=C(OC1CN2CCC1CC2)c1ccc([N+](=O)[O-])cc1 (centres undefined) | inactive: -0.895% |
| O=C(OCCN1CCN(CCOCc2ccccc2)CC1)C(O)(c1ccccc1)c1ccccc1 | inactive: 5.44% |
| CCOC(=O)c1ccc(NP(C)(=O)Oc2cc(C)cc(C)c2)cc1 (centres undefined) | inactive: 15.9% |
| Cc1cc(C)cc(OP(C)(=O)Nc2ccc(C)cc2C)c1 (centres undefined) | inactive: 11.4% |
| COc1ccccc1OP(C)(=O)Nc1cccc(Br)c1 (centres undefined) | inactive: 11.7% |
| Cc1ccc(C)c(NP(C)(=O)Oc2ccccc2)c1 (centres undefined) | inactive: 15.6% |
| Cc1cc(C)cc(OP(C)(=O)Nc2ccccn2)c1 (centres undefined) | inactive: 1.98% |
| O=C(O)c1cccc(Nc2c([N+](=O)[O-])cc([N+](=O)[O-])cc2[N+](=O)[O-])c1 | inactive: 9.19% |
